The values that follow come from patent publication US20100305113A1, “Substituted Imidazopyridazines as Lipid Kinase Inhibitors” (priority 2007, published 2010).

The chains behind the UniProt entries cited, without tags or fusion partners. A line that says so, or that is headed by a name, gives the form on record, which may keep a tag or linker. Residues count along the entry.
UniProt O00329, 2-1044 with tags or gaps limits assumed: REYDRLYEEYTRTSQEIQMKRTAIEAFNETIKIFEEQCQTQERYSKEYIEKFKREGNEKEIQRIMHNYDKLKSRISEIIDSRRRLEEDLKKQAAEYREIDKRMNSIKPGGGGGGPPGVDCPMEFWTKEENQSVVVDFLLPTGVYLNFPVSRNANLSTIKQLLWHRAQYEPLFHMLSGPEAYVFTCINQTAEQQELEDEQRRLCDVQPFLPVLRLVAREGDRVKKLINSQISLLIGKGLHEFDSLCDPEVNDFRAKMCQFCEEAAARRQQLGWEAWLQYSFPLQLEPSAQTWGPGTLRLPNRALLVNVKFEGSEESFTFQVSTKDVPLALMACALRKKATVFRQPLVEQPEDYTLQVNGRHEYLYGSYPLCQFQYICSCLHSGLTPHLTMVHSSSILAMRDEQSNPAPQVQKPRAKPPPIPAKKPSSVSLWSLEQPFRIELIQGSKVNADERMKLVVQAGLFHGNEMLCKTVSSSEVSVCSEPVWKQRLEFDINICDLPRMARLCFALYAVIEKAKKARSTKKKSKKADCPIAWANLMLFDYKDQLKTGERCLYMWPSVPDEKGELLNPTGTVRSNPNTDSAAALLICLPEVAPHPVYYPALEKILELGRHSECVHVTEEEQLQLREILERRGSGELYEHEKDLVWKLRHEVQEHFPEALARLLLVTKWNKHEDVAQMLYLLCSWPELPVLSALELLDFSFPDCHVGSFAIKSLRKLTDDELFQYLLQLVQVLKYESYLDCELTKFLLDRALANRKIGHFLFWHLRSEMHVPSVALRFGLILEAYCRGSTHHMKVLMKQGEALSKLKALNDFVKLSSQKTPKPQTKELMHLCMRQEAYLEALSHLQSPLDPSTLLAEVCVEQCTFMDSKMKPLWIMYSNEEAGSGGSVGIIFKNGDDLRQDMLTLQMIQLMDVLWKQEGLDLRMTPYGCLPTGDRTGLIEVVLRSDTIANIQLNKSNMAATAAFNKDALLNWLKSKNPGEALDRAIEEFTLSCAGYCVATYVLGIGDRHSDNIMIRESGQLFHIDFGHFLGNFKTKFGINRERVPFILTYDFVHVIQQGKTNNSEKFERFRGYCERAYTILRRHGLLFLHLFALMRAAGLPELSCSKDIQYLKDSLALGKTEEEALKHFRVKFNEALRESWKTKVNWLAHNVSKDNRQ
UniProt P42338, 2-1070 with tags or gaps limits assumed: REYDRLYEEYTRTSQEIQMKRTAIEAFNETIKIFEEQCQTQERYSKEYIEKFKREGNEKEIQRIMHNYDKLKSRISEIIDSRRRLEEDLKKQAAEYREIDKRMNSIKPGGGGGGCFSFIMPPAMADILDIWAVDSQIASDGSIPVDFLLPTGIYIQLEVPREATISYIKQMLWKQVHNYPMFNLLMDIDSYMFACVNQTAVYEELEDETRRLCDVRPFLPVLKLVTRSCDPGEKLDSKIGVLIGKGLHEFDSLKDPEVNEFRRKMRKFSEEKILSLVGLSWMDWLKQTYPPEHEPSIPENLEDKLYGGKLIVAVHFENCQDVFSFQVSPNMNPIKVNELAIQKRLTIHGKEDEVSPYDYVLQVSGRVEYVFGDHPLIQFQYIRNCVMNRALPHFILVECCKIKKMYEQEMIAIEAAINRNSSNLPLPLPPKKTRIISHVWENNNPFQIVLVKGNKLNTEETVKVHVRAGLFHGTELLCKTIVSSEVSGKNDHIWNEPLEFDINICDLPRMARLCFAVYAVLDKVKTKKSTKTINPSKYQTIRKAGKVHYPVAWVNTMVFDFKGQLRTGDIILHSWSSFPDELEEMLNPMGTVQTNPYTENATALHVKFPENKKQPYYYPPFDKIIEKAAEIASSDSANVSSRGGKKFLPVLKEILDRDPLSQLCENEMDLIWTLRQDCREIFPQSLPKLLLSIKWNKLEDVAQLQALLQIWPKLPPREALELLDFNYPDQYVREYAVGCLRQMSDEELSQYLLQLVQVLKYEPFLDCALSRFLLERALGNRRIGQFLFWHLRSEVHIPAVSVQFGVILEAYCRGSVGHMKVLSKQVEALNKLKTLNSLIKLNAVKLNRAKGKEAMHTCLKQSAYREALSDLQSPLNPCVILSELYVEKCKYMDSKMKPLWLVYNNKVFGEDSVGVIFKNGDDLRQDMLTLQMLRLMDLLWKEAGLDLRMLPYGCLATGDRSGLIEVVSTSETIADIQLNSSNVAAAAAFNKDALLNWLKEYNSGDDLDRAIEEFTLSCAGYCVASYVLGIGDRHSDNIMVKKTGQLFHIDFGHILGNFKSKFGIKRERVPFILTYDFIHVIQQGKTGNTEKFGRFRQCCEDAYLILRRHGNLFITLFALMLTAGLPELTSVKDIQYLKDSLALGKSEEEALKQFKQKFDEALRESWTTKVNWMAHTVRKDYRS
UniProt P48736, 144-1102 limits assumed: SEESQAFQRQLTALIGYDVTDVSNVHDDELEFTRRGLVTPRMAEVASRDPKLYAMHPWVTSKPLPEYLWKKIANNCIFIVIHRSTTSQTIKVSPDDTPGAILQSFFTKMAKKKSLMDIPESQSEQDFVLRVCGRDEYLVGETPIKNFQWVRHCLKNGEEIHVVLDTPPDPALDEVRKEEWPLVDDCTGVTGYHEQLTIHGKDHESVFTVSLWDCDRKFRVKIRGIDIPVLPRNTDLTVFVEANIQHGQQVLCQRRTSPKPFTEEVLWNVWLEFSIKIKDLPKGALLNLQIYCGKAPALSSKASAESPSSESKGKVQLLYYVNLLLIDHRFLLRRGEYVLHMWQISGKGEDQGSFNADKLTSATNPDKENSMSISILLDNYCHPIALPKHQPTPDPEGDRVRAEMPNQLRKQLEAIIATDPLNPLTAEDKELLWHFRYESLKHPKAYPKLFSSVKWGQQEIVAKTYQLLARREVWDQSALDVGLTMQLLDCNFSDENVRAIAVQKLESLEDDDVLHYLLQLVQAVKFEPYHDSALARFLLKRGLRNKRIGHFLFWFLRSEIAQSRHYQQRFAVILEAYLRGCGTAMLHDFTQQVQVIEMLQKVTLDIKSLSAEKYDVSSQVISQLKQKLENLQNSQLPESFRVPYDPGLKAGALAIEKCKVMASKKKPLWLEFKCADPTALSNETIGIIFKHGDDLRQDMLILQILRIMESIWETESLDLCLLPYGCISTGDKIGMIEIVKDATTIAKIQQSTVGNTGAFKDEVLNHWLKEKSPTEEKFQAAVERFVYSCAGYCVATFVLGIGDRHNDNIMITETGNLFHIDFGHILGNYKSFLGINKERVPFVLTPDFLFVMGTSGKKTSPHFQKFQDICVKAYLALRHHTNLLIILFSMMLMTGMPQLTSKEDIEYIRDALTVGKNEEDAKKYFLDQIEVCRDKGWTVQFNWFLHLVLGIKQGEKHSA
UniProt P42336, 21-1068 with tags or gaps limits assumed: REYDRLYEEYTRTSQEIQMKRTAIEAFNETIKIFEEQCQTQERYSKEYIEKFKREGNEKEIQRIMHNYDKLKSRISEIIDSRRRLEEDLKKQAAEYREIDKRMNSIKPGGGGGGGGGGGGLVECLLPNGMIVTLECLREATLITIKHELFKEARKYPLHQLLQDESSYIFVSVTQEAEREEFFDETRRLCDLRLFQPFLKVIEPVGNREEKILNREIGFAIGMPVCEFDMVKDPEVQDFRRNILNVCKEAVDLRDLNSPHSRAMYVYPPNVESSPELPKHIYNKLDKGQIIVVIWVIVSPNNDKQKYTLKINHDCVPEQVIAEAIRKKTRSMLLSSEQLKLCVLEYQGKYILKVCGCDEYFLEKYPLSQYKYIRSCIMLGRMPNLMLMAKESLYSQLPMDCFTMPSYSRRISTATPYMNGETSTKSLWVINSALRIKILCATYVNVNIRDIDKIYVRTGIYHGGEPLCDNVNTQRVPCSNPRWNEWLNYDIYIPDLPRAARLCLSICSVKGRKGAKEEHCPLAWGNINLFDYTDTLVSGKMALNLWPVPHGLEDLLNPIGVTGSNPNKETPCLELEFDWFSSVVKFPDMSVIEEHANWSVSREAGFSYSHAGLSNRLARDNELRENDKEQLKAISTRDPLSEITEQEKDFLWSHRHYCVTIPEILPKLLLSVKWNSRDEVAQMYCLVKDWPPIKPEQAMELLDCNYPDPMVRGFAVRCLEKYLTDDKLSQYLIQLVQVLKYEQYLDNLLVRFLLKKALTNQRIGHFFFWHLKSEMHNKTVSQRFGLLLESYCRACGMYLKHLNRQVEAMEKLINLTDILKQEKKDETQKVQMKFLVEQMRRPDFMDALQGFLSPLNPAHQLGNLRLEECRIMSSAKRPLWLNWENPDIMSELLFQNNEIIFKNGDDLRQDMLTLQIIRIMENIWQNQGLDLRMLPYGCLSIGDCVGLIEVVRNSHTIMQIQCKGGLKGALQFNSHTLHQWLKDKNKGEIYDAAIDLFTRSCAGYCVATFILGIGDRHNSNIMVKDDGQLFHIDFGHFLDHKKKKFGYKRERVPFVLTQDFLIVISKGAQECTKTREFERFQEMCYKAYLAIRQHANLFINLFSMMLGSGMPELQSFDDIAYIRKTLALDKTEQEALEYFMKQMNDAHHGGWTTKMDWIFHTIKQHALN

Assay [1] addresses PI3K delta (Homo sapiens, UniProt O00329). The experiment in a line: PI3K delta enzymatic assay (Kinase-Glo luminescence). Particulars: read-out: PI3K delta IC50; Enzymatic Data. How it is done:
(§1) In a more preferred assay, the kinase reaction is performed in a final volume of 10 μL per well of a low volume non binding CORNING, 384 well black plate (Cat. No. #3676). The final concentrations of ATP and phosphatidyl inositol (PI) in the assay are 1 μM and 10 μg/mL respectively. The reaction is started by the addition of ATP.
(§2) The components of the assay are added per well as follows: […]
(§3) IC50 is determined by a four parameter curve fitting routine that comes aloneg with “excel fit”. […] Alternatively, IC50 values are calculated using idbsXLfit model 204, which is a 4 parameter logistic model.
(In general: Kinase-Glo measures the ATP left after a reaction by luminescence.)

Assay [2] has as its target PI3K beta (Homo sapiens, UniProt P42338). Kind of assay: PI3K beta enzymatic assay (Kinase-Glo luminescence). The conditions noted are these: read-out: PI3K beta IC50; Enzymatic Data. How it is done:
as §1, §2, §3

The target of assay [3] is PI3K gamma (Homo sapiens, UniProt P48736). Kind of assay: PI3K gamma enzymatic assay (Kinase-Glo luminescence). The conditions noted are these: read-out: PI3K gamma IC50; Enzymatic Data. How it is done:
as §1, §2, §3

Assay [4] addresses PI3K alfa (Homo sapiens, UniProt P42336). Kind of assay: PI3K alfa enzymatic assay (Kinase-Glo luminescence). Particulars: read-out: PI3K alfa IC50; Enzymatic Data. How it is done: as §1, §2, §3

A value given as a limit tells only on which side of the number the result lay.

In the case of `COc1cc(-c2ccc3nc(C)c(-c4cnc(N)c(C(F)(F)F)c4)n3n2)ccc1OCCNC(=O)c1ccc(F)c(F)c1`, the IC50 in assay [1], in assay [2] and in assay [3] was greater than 9.1 µM each time.

For `COc1cccc(NC(=O)NCCCOc2ccc(-c3ccc4nc(C)c(-c5cnc(N)c(C(F)(F)F)c5)n4n3)cc2OC)c1`, the IC50 in assay [1], in assay [2] and in assay [3] was greater than 9.1 µM each time.

As for `COc1cc(-c2ccc3nc(C)c(-c4cnc(N)c(C(F)(F)F)c4)n3n2)ccc1OCCNC(=O)c1cccc(C(F)(F)F)c1`, the IC50 is greater than 9.1 µM in assay [1], greater than 9.1 µM in assay [2], 3.69 µM in assay [4] and greater than 9.1 µM in assay [3].
